{"source": "ChEMBL document CHEMBL1649326", "about": "“First report of the multidrug resistance gene cfr and the phenicol resistance gene fexA in a Bacillus strain from swine feces” (2010)", "system": "Staphylococcus aureus", "settings": "RN4220, Feces", "data": [{"sequence": "GENTAMICIN", "values": [{"measurement": "MIC", "value": 0.5, "unit": "µg/mL"}]}]}
